What was measured:
[1] = substrate: CC1(C)S[C@@H]2[C@H](NC(=O)[C@H](N)c3ccc(O)cc3)C(=O)N2[C@H]1C(=O)O; test: (§1) Activity at Escherichia coli beta-lactamase SHV-1
[2] = substrate: CO/N=C(\C(=O)N[C@@H]1C(=O)N2C(C(=O)O)=C(COC(C)=O)CS[C@H]12)c1csc(N)n1; test: as §1
[3] = substrate: CC(C)(O/N=C(\C(=O)N[C@@H]1C(=O)N2C(C(=O)[O-])=C(C[n+]3ccccc3)CS[C@H]12)c1csc(N)n1)C(=O)O; test: as §1
[4] = substrate: CC(=O)OCC1=C(C(=O)O)N2C(=O)[C@@H](NC(=O)Cc3cccs3)[C@H]2SC1; test: Ratio of Kcat to Km in Escherichia coli beta-lactamase SHV-1

B1: Beta-lactamase SHV-1 (Escherichia coli), P0AD63 (protein)
chain: MRYIRLCIISLLATLPLAVHASPQPLEQIKLSESQLSGRVGMIEMDLASGRTLTAWRADERFPMMSTFKVVLCGAVLARVDAGDEQLERKIHYRQQDLVDYSPVSEKHLADGMTVGELCAAAITMSDNSAANLLLATVGGPAGLTAFLRQIGDNVTRLDRWETELNEALPGDARDTTTPASMAATLRKLLTSQRLSARSQRQLLQWMVDDRVAGPLIRSVLPAGWFIADKTGAGERGARGIVALLGPNNKAERIVVIYLRDTPASMAERNQQIAGIGAALIEHWQR
Work on B1 yielded a kcat [1] of 1040 s⁻¹, a Km [2] of 257 µM and a Km [3] of 142 µM. For the same protein, the kcat/Km [4] was 3.2e+06 M⁻¹ s⁻¹.
